Source: US6294153A, “Aerosol pharmaceutical formulation for pulmonary and nasal delivery” (Generex Pharmaceuticals, Inc., priority 1999, dated 2001)

Key:
[1] = healthy volunteers
Excerpt: Day-1: 5 puffs of 2 units each (total 10 units)
Day-2: 5 puffs of 4 units each (total 20 units)
Day-1: 5 puffs of 6 units each (total 30 units)

[2] = Method: (§1) The vials were then charged with a non-CFC tetrafluoroethane, (134a) propellant with the aid of a Pamasol 2008 semi-automatic gas filling equipment.
The aerodynamic particle size was determined by 8-stage USP Anderson Cascade Impactor-Mark-II (trade mark). The Multistage Cascade Impactor was cleaned with methanol and air-dried at 30° C. Glass fibre filters were placed on the collection plates. Seals were aligned properly and the actuator was attached to the mouthpiece and assembled onto the USP induction port and jet stages. A vacuum pump was connected and air flow rate is set to 28.3 liter/min. The vial was primed by shaking for 10 seconds and actuating twice to waste. […] […] The filters were carefully removed and placed in scintillation vials and sonicated for 15 minutes.

[3] = remark: listed apart in the source
Excerpt: as §1

[4] = stage 3, U400, 4 units/actuation
[5] = stage 4, U400, 4 units/actuation
[6] = stage 5, U400, 4 units/actuation
[7] = stage 6, U400, 4 units/actuation
[8] = stage 7, U400, 4 units/actuation
[9] = stage 8, U400, 4 units/actuation

In the case of insulin, the Plasma insulin level ([1]; Day-1, 10 units (5 puffs of 2 units), 15 min) was 56 pmol/L, the Plasma insulin level ([1]; Day-1, 10 units (5 puffs of 2 units), 30 min) was 89 pmol/L and the Plasma insulin level ([1]; Day-1, 10 units (5 puffs of 2 units), 45 min) was 119 pmol/L. The Plasma insulin level ([1]; Day-1, 10 units (5 puffs of 2 units), 60 min) was 160 pmol/L, the Plasma insulin level ([1]; Day-1, 10 units (5 puffs of 2 units), 75 min) was 160 pmol/L and the Plasma insulin level ([1]; Day-1, 10 units (5 puffs of 2 units), 90 min) was 142 pmol/L. It also gave a Plasma insulin level ([1]; Day-1, 10 units (5 puffs of 2 units), 120 min) of 78 pmol/L, a Plasma insulin level ([1]; Day-1, 10 units (5 puffs of 2 units), 150 min) of 62 pmol/L and a Plasma insulin level ([1]; Day-1, 10 units (5 puffs of 2 units), 180 min) of 37 pmol/L. For the same substance, the Plasma insulin level ([1]; Day-1, 10 units (5 puffs of 2 units), time 0) was 35 pmol/L, the Plasma insulin level ([1]; Day-2, 20 units (5 puffs of 4 units), 15 min) was 62 pmol/L and the Plasma insulin level ([1]; Day-2, 20 units (5 puffs of 4 units), 30 min) was 97 pmol/L. For the same substance, the Plasma insulin level ([1]; Day-2, 20 units (5 puffs of 4 units), 45 min) was 138 pmol/L, the Plasma insulin level ([1]; Day-2, 20 units (5 puffs of 4 units), 60 min) was 178 pmol/L and the Plasma insulin level ([1]; Day-2, 20 units (5 puffs of 4 units), 75 min) was 175 pmol/L. The Plasma insulin level ([1]; Day-2, 20 units (5 puffs of 4 units), 90 min) was 157 pmol/L, the Plasma insulin level ([1]; Day-2, 20 units (5 puffs of 4 units), 120 min) was 112 pmol/L and the Plasma insulin level ([1]; Day-2, 20 units (5 puffs of 4 units), 150 min) was 87 pmol/L. The Plasma insulin level ([1]; Day-2, 20 units (5 puffs of 4 units), 180 min) was 49 pmol/L, the Plasma insulin level ([1]; Day-2, 20 units (5 puffs of 4 units), time 0) was 38 pmol/L and the Plasma insulin level ([1]; Day-3, 30 units (5 puffs of 6 units), 15 min) was 72 pmol/L. For the same substance, the Plasma insulin level ([1]; Day-3, 30 units (5 puffs of 6 units), 30 min) was 112 pmol/L, the Plasma insulin level ([1]; Day-3, 30 units (5 puffs of 6 units), 45 min) was 178 pmol/L and the Plasma insulin level ([1]; Day-3, 30 units (5 puffs of 6 units), 60 min) was 202 pmol/L. It also gave a Plasma insulin level ([1]; Day-3, 30 units (5 puffs of 6 units), 75 min) of 190 pmol/L, a Plasma insulin level ([1]; Day-3, 30 units (5 puffs of 6 units), 90 min) of 173 pmol/L and a Plasma insulin level ([1]; Day-3, 30 units (5 puffs of 6 units), 120 min) of 141 pmol/L. The Plasma insulin level ([1]; Day-3, 30 units (5 puffs of 6 units), 150 min) was 92 pmol/L, the Plasma insulin level ([1]; Day-3, 30 units (5 puffs of 6 units), 180 min) was 67 pmol/L and the Plasma insulin level ([1]; Day-3, 30 units (5 puffs of 6 units), time 0) was 42 pmol/L. It also gave a Particle size ([2]; stage 3, 2 units/actuation) of 4.0 μm, a Particle size [2, 4] of 3.8 μm and a units/Actuation [2, 4] of 4.0 units/Actuation. The Particle size ([2]; stage 4, 2 units/actuation) was 3.8 μm, the units/Actuation ([2]; stage 4, 2 units/actuation) was 2.0 units/Actuation and the Particle size [2, 5] was 3.3 μm. For the same substance, the units/Actuation [2, 5] was 4.0 units/Actuation, the Particle size ([2]; stage 5, 2 units/actuation) was 3.0 μm and the units/Actuation ([2]; stage 5, 2 units/actuation) was 2.0 units/Actuation. For the same substance, the Particle size [2, 6] was 3.0 μm, the units/Actuation [2, 6] was 4.0 units/Actuation and the Particle size ([2]; stage 6, 2 units/actuation) was 2.1 μm. It also gave a units/Actuation ([2]; stage 6, 2 units/actuation) of 2.0 units/Actuation, a Particle size [2, 7] of 2.0 μm and a units/Actuation [2, 7] of 4.0 units/Actuation. For the same substance, the Particle size ([2]; stage 7, 2 units/actuation) was 1.0 μm, the units/Actuation ([2]; stage 7, 2 units/actuation) was 2.0 units/Actuation and the Particle size [2, 8] was 1.0 μm. The units/Actuation [2, 8] was 4.0 units/Actuation, the Particle size ([2]; stage 8, 2 units/actuation) was 0.7 μm and the units/Actuation ([2]; stage 8, 2 units/actuation) was 2.0 units/Actuation. The Particle size [2, 9] was 0.6 μm, the units/Actuation [2, 9] was 4.0 units/Actuation and the “Shot Weight” value ([3]; U400, 4 units per actuation, shot number 10) was 0.078 g. For the same substance, the “Shot Weight” value ([3]; U400, 4 units per actuation, shot number 15) was 0.083 g, the “Shot Weight” value ([3]; U400, 4 units per actuation, shot number 20) was 0.076 g and the “Shot Weight” value ([3]; U400, 4 units per actuation, shot number 25) was 0.079 g. For the same substance, the “Shot Weight” value ([3]; U400, 4 units per actuation, shot number 30) was 0.070 g, the “Shot Weight” value ([3]; U600, 6 units per actuation, shot number 10) was 0.17 g and the “Shot Weight” value ([3]; U600, 6 units per actuation, shot number 20) was 0.18 g. The “Shot Weight” value ([3]; U600, 6 units per actuation, shot number 30) was 0.182 g, the “Shot Weight” value ([3]; U600, 6 units per actuation, shot number 40) was 0.174 g and the “Shot Weight” value ([3]; U600, 6 units per actuation, shot number 70) was 0.177 g.

Read-outs that look alike come from different tables or passages of the source.
